Test results from patent publication US20110097324A1, “COMPOSITIONS AND METHODS FOR MODULATING NICOTINIC/NMDA RECEPTOR FUNCTION” (CENTRE FOR ADDICTION AND MENTAL HEALTH, priority 2008, published 2011).
Where no end group is shown, it is not given here.

Amino acid sequences for entries named in this document (tags omitted). Residues count along the entry.
UniProt Q00959, 1350-1464: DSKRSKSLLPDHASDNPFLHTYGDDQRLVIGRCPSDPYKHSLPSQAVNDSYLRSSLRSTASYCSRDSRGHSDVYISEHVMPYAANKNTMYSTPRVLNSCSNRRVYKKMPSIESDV

Target: NR2A CT (Rattus norvegicus, UniProt Q00959)
Experiment: In vitro binding assay with in vitro translated [35S]-NR2A CT probe
From the text: In vitro binding assay provided evidence that α7-nAchR and NR2A subunit can directly interact with each other. As shown in FIG. 2C (top panel), in vitro translated [^35S]-α7-IL2 probe hybridized with GST-NR2ACT but not GST-NR1aCT or GST alone, indicating a direct protein-protein interaction between the α7 subunit of nAchR and the NR2A subunit and an indirect interaction between α7 and NR1-1a subunit, which may be attributed to the interaction between NR1-1a with the NR2A subunit.

Substance: GST-α7IL2-1-2: GST fusion of α7IL2-1-2, K326-M345 (KMPKWTRVILLNWCAWFLRM; also: GST fusion; UniProt P36544 326-345, looked up, fragment)
- hybridization with [35S]-NR2A CT probe: interacts with the NR2A CT
